This assay concerns the target Alpha-1B adrenergic receptor (Homo sapiens, UniProt P35368).

Amino acid sequences for entries named in this document (tags omitted).
UniProt P35368, whole entry: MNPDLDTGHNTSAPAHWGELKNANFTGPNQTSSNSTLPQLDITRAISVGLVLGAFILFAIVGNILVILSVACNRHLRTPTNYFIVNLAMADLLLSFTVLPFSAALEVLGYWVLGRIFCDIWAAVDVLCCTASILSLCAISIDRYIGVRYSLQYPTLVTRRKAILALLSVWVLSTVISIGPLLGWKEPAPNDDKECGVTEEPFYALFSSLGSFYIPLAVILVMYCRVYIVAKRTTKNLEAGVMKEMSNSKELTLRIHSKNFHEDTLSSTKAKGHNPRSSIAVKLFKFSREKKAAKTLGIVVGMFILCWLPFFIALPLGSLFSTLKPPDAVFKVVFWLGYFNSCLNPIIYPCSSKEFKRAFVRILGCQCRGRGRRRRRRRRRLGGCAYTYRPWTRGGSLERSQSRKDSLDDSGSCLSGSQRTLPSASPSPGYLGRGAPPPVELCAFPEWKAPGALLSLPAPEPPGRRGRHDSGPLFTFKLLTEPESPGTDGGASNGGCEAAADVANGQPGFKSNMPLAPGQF

`O=C(CCCN1CCC2(CC1)C(=O)NCN2c1ccccc1)c1ccc(F)cc1` [8-[4-(4-fluorophenyl)-4-oxidanylidene-butyl]-1-phenyl-1,3,8-triazaspiro[4.5]decan-4-one] returned a Ki of 3.09 nM. That is a single-digit nanomolar value.

These data come from BindingDB's records for doi:10.1124/jpet.105.087809 (Universit&Aagrove, 2005).
